From patent US20240058464A1, “COMBINATION THERAPY WITH FOR46 FOR CANCER” (Fortis Therapeutics, Inc., priority 2021, published 2024) come the findings set out here.

The test system of assay [1] is CD46 expression. Kind of assay: CD46 expression by RNA-sequencing in paired tumor biopsies before and after therapy.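 On all read-outs here: FFPE human tumor biopsies, exome-capture RNA-seq, reads aligned to GRCh37, counts normalized for GC content, length and depth, summed per gene, log2-transformed, samples paired before versus after therapy.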 The settings on record: for CD46 expression, Post-Treatment Biopsy / CD46 expression, Pre-Treatment Biopsy: RNA-seq log2-transformed counts.
The test system of assay [2] is CD46 expression. The assay can be described thus: CD46 expression by RNA-sequencing in unpaired pre-treatment and post-treatment tumor biopsies. It is filed as in vivo, human. The following applies: for CD46 expression diff: Post minus Pre, unpaired biopsies, log2-transformed counts; for CD46 expression Percentage change: post- vs pre-treatment unpaired biopsies; for CD46 expression Post: post-treatment biopsies, unpaired, RNA-seq log2-transformed normalized counts.

Where [3] appears, read: Head and Neck Squamous Cell Carcinoma.

`C=CC(=O)Nc1cc(Nc2nccc(-c3cn(C)c4ccccc34)n2)c(OC)cc1N(C)CCN(C)C` [osimertinib]: the “CD46 expression, Post-Treatment Biopsy” value in the assay on CD46 expression [1] (Non-Small Cell Lung Cancer) came out at 6.25.
Take trastuzumab: in the assay with CD46 expression [1] (Breast Cancer), the “CD46 expression diff (post minus pre)” value worked out at 0.25; the “Percent Change in CD46 expression” value stood at 4.2%; the “CD46 expression, Post-Treatment Biopsy” value is reported as 6.31; the “CD46 expression, Pre-Treatment Biopsy” value is recorded as 6.05. For the same compound, in the assay on CD46 expression [2] (Breast Cancer), the CD46 expression diff is listed as −0.03, the “CD46 expression Percentage change” value is −0.6% and the “CD46 expression Post” value is recorded as 6.25. Also, in the assay with CD46 expression [2] (Esophageal Cancer), the CD46 expression diff is 0.24, the “CD46 expression Percentage change” value came out at 4.0% and the “CD46 expression Post” value is recorded as 6.13.
As to cetuximab, in the assay with CD46 expression [1] (Colorectal Cancer), the “Percent Change in CD46 expression” value is listed as 1.7%; the “CD46 expression, Post-Treatment Biopsy” value came to 6.13; the “CD46 expression, Pre-Treatment Biopsy” value is listed as 6.03. Besides, in the assay on CD46 expression [2] (Colorectal Cancer), the CD46 expression diff is reported as 0.31, the “CD46 expression Percentage change” value is on record as 5.0% and the “CD46 expression Post” value worked out at 6.53. Further, in the assay on CD46 expression [2] (setting [3]), the CD46 expression diff was determined as 0.23, the “CD46 expression Percentage change” value was 4.2% and the “CD46 expression Post” value amounted to 5.78.
Consider `CO[C@H]1C(=O)[C@]2(C)[C@@H](OC)C[C@H]3OC[C@@]3(OC(C)=O)[C@H]2[C@H](OC(=O)c2ccccc2)[C@]2(O)C[C@H](OC(=O)[C@H](O)[C@@H](NC(=O)OC(C)(C)C)c3ccccc3)C(C)=C1C2(C)C` [cabazitaxel], for which, in the assay with CD46 expression [2] (Prostate Cancer), the “CD46 expression Post” value was found to be 6.13.
As for `C[C@]12C=CC(=O)C=C1CC[C@@H]1[C@@H]2C(=O)C[C@@]2(C)[C@H]1CC[C@]2(O)C(=O)CO` [prednisone], the “CD46 expression Post” value in the assay on CD46 expression [2] (Non-Small Cell Lung Cancer) is given as 6.13.
